This assay has as its system phosphorylated-EGFR (p-EGFR). Nature of the assay: EGF-stimulated p-EGFR in 22Rv1 cells. Format: cell-based. The settings on record: 10 nM IRESSA.

Take `COc1cc2ncnc(Nc3ccc(F)c(Cl)c3)c2cc1OCCCN1CCOCC1` [IRESSA, Gefitnib]: the “Effect on EGF-stimulated p-EGFR upregulation” value is recorded as “completely blocked”.
